Laboratory results taken from patent US10618914B2 (UNIVERSITY OF PITTSBURGH—OF THE COMMONWEALTH SYSTEM OF …, priority 2015, dated 2020).

Assays:
[1] = tested on: STAT3; assay: HCS STAT3 assay; format: cell-based
[2] = tested on: STAT1; assay: STAT1 assay (selectivity counter-screen); format: cell-based; conditions: Table 5; * average of 2 experiments
[3] = Table 1, read-out: STAT3 (mean IC50)
[4] = Table 4, read-out: STAT3 IC50 (converted)
[5] = Table 5, * average of 2 experiments, read-out: STAT3 IC50 (converted)
[6] = Table 2, read-out: STAT3 (IC50)

**Q.** With `COc1ccc(C2=Nn3c(nnc3-c3[nH]nc4c3CCC4)SC2)cc1` as the compound, how does the IC50 [1, 3] read?
**A.** 35.9 µM

**Q.** For `Clc1ccc(C2=Nn3c(nnc3-c3cc(-c4ccccc4)n[nH]3)SC2)cc1Cl` [1b], which IC50 [1, 4] is on record?
**A.** 31.2 µM

**Q.** How did the IC50 [1, 4] turn out when `Clc1ccc(C2=Nn3c(nnc3-c3[nH]nc4c3CCC4)SC2)cc1` [2a] was run?
**A.** 26.8 ± 22.3 µM

**Q.** With `Clc1cccc(C2=Nn3c(nnc3-c3[nH]nc4c3CCC4)SC2)c1` [6a] as the compound, how does the IC50 [1, 4] read?
**A.** 21.2 ± 5.9 µM

**Q.** Which IC50 [1, 4] does the source give for `Clc1ccc(C2=Nn3c(nnc3-c3[nH]nc4c3CCC4)SC2)s1` [10a] here?
**A.** 11 ± 5.5 µM

**Q.** `COc1ccc(C2=Nn3c(nnc3-c3cc(-c4ccc(Cl)cc4)n[nH]3)SC2C)cc1` (stereo not shown) [Cmpd 24] was tested. Which IC50 [2] did it give?
**A.** 29.5 µM

**Q.** For `COc1ccc(C2=Nn3c(nnc3-c3[nH]nc4c3CCC4)SC2C(C)C)cc1` (stereo not shown) [Cmpd 26], which IC50 [1, 5] is on record?
**A.** 2.2 ± 1.2 µM

**Q.** How did the IC50 [1, 5] turn out when `CCC(C)C1Sc2nnc(-c3cc(-c4ccccc4)n[nH]3)n2N=C1c1ccc(OC)cc1` (stereo not shown) [Cmpd 28] was run?
**A.** 5.1 µM

**Q.** `COc1ccc(C2=Nn3c(nnc3-c3[nH]nc4c3CCC4)SC2C(C)C)cc1` (stereo not shown) [UPCDC10318] was tested. Which IC50 [1, 3] did it give?
**A.** 8.47 µM

**Q.** And the IC50 [1, 6]?
**A.** 8.5 µM

**Q.** With `Clc1ccc(C2=Nn3c(nnc3-c3[nH]nc4c3CCC4)SC2)cc1` [UPCDC87346005] as the compound, how does the IC50 [1, 3] read?
**A.** 40 µM

**Q.** `COc1ccc(C2=Nn3c(nnc3-c3cc(-c4ccccc4)n[nH]3)SC2CC(C)C)cc1` (stereo not shown) [compound 10307] was tested. Which IC50 [1, 6] did it give?
**A.** 13.6 µM

**Q.** How did the IC50 [1, 6] turn out when `COc1ccc(C2=Nn3c(nnc3-c3cc(-c4ccccc4)n[nH]3)SC2CCN)cc1` (stereo not shown) [compound 10371] was run?
**A.** 11.7 µM

Where two headings read alike, the source gives them in different places.
